For this series the following is noted: pH 7.4 buffer, 18 h, ambient temperature; literature compounds; averaged.

Consider Enoxin, for which the “Pe (linear velocity of permeation)” value is recorded as 0.90 10^−6 cm/s.

Source of the values: US7060428B2, “Methods and compositions useful for the prediction of blood-brain barrier permeation” (Wyeth, priority 2001, dated 2006).
